Patent US10874626B2, “Formulation for use in a method of treatment of pain” (NEVAKAR Inc., priority 2016, dated 2020)

Experiment: pH dependent solubility studies (pH 4.0-8.0)
Assay type: physicochemical
Conditions: APAP alone, overall pH range 4.0-8.0

Compound: CC(=O)Nc1ccc(O)cc1 [Acetaminophen, acetaminophen]
- pH dependence of solubility of APAP: no significant difference in solubility
